The values that follow are results of earlier work, collected in US20240173233A1, “COSMETIC SACHET FOR REDUCING AGE-RELATED SYMPTOMS IN HUMAN SKIN” (Bloo Pharmapeutica Inc., priority 2022, published 2024).

The series relates to in vitro reconstructed 3D human skin model. The note with it: even at high concentrations.

For the molecule `CN(C)c1ccc2nc3ccc(N(C)C)cc3[s+]c2c1.[Cl-]` [methylene blue, [7-(dimethylamino)phenothiazine-3-ylidene]-dimethylazanium chloride], the skin irritation result is reported as “did not cause irritation even at high concentrations”.
